Only a part is listed here, and it is no random draw. Some tests of the compounds listed are not included; inactive here does not mean inactive elsewhere. Activity calls are given as the source filed them. No stated cut-off is given here; in the data, active means percent response above about 24% (passing the limit was not always enough); inactive means the rest.

The test relates to MEKK2 (MAP3K2) mutant PB1 domain binding to MEK5, human. The test can be described thus: MEK5 binding signal on mutant MEKK2 PB1, primary screen, biochemical, multiplex bead flow cytometry, Alexa488-MEK5 (AID 1530). The note with it: at 10 µM, stronger effect = higher value.
As to `COc1ccc(Br)c(C(=O)NCC2(N3CCCCC3)CCCCC2)c1`, the percent response was inactive: -1%.

For the molecule `CN(C)c1cccc(C(=O)NCC2(N(C)C)CCCCC2)c1`, the percent response was inactive: 8%.

Take `CC(C)Oc1ccc(C(=O)NCC2(N(C)C)CCCCC2)cc1`: the percent response was inactive: 0%.

Take `O=C(OC1CN2CCC1CC2)C(CO)(c1ccccc1)c1ccccc1` (centres undefined): the percent response was inactive: 1%.

Consider `COc1ccc(Cl)cc1C(=O)NCC1(N(C)C)CCCCC1`, for which the percent response is inactive: 6%.

With `COc1cccc(C(=O)NCC2(N3CCCCC3)CCCCC2)c1`, the percent response is inactive: -2%.

As to `O=C(NCC1(N2CCCCC2)CCCCC1)c1cccc(Cl)c1`, the percent response was inactive: -6%.

`CN(C)C1(CNC(=O)c2ccc(Br)cc2)CCCCC1`: the percent response is inactive: 4%.

Take `COc1cc(C(=O)NCC2(N(C)C)CCCCC2)c([N+](=O)[O-])cc1OC`: the percent response was inactive: -3%.

Turning to `O=C(NCC1(N2CCCCC2)CCCCC1)c1cc(F)c(F)cc1Cl`, the percent response is inactive: -4%.

`C=CCN1CCN(CCOC(=O)C(O)(c2ccccc2)c2ccccc2)CC1`: the percent response is inactive: 2%.

For the molecule `O=C(NCC1(N2CCCCC2)CCCCC1)c1cccc(Br)c1`, the percent response is inactive: -2%.

For `CCN1CCCC(OC(=O)C2(O)c3ccccc3C=Cc3ccccc32)C1` (centres undefined), the percent response was inactive: -2%.

With `Cc1cc(C(=O)NCC2(N3CCCCC3)CCCCC2)ccc1[N+](=O)[O-]`, the percent response is inactive: 9%.

For `COc1ccc(C(=O)NCC2(N(C)C)CCCCC2)cc1`, the percent response is inactive: 1%.

Consider `CN(C)c1ccc(C(=O)NCC2(N(C)C)CCCCC2)cc1`, for which the percent response was inactive: 8%.

Turning to `CN(C)C1CCCC1OC(=O)C(O)(c1ccccc1)c1ccccc1` (centres undefined), the percent response is inactive: 3%.

With `Cc1ccccc1C(=O)NCC1(N2CCCCC2)CCCCC1`, the percent response was inactive: -7%.

Regarding `CC(C)N1C(=O)CC2(CCN(CCOC(=O)C(O)(c3ccccc3)c3ccccc3)CC2)C1=O`, the percent response is inactive: 2%.

As for `COc1cc(SC)ccc1C(=O)NCC1(N(C)C)CCCCC1`, the percent response is inactive: 6%.

For `CCN(CC)CC(C)C(C)OC(=O)C(O)(c1ccccc1)c1ccccc1` (centres undefined), the percent response is inactive: -2%.

`Cc1ccc(C(=O)NCC2(N3CCCCC3)CCCCC2)cc1`: the percent response is inactive: 0%.

On to `O=C(NCC1(N2CCCCC2)CCCCC1)c1cc([N+](=O)[O-])ccc1Cl`, for which the percent response was inactive: -19%.

Turning to `CN1[C@@H]2CC[C@H]1CC(OC(=O)C(O)(c1ccccc1)c1ccccc1)C2` (some centres undefined), the percent response is inactive: 6%.

The record behind these values is PubChem BioAssay AID1530 (NMMLSC, 2009).
